Chains of the proteins cited; added tags and fusions are not shown. Residues count along the entry.
UniProt O00408, 2-941: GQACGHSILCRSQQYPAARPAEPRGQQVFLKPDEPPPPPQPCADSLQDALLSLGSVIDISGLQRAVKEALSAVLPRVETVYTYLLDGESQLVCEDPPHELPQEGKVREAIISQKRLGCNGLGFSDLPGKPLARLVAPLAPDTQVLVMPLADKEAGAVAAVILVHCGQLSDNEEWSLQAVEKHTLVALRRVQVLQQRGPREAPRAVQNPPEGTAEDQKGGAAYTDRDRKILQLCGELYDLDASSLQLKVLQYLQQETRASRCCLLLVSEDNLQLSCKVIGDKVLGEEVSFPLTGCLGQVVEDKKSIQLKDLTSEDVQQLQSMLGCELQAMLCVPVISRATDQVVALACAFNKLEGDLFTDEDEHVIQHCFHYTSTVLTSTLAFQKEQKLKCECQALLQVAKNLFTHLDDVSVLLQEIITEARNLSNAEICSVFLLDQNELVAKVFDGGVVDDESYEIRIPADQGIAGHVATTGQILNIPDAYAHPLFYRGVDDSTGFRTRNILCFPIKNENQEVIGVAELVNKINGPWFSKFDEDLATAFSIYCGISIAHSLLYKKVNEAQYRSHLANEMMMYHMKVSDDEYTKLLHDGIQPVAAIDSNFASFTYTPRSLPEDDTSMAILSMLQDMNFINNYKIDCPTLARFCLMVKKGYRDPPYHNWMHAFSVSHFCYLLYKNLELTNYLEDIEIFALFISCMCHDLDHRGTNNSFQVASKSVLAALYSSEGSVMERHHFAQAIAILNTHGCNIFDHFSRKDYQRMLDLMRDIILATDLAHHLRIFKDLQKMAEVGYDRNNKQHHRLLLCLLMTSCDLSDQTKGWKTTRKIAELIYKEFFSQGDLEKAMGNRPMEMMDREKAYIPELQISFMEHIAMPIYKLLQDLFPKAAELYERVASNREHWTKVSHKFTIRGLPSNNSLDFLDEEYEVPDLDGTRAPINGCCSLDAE

In patent publication US11186582B2, “Substituted [1,2,4]triazolo[1,5-a]pyrimidin-7-yl compounds as PDE2 inhibitors” (DART NEUROSCIENCE (CAYMAN) LTD., priority 2014, dated 2021):

Each molecule was assayed against FLAG-tagged PDE2A1 (amino acids 2-941) (Homo sapiens (Human), UniProt O00408) (assay: IMAP TR-FRET PDE2A phosphodiesterase enzymatic assay). Conditions: not given.
For `Cc1cc(C2CCCN(C(=O)C3Cc4ccccc4O3)C2)n2ncnc2n1` (stereo not shown) [Example 351, 1-[(2,3-Dihydro-1-benzofuran-2-yl)carbonyl]-3-{5-methyl-[1,2,4]triazolo[1,5-a]pyrimidin-7-yl}piperidine], the IC50 was 0.1 to 1 µM. `Cc1cc(C2CCCN(C(=O)C3COc4ccccc4O3)C2)n2ncnc2n1` (stereo not shown) [Example 354, 1-[(2,3-Dihydro-1,4-benzodioxin-2-yl)carbonyl]-3-{5-methyl-[1,2,4]triazolo[1,5-a]pyrimidin-7-yl}piperidine] was tested, and the IC50 was 0.1 to 1 µM. Molecule `Cc1cc(C2CCCN(C(=O)C3Cc4ccccc4CN3C)C2)n2ncnc2n1` (stereo not shown) [Example 356, 2-Methyl-3-[(3-{5-methyl-[1,2,4]triazolo[1,5-a]pyrimidin-7-yl}piperidin-1-yl)carbonyl]-1,2,3,4-tetrahydroisoquinoline] has an IC50 of 0.1 to 1 µM. For `Cc1cc(C2CN(C(=O)C3COc4ccccc4C3)CCO2)n2ncnc2n1` (stereo not shown) [Example 359, 4-[(3,4-Dihydro-2H-1-benzopyran-3-yl)carbonyl]-2-{5-methyl-[1,2,4]triazolo[1,5-a]pyrimidin-7-yl}morpholine], the IC50 was 0.1 to 1 µM. `Cc1cc(C2CN(C(=O)c3ccc4c(c3)CCO4)CCO2)n2ncnc2n1` (stereo not shown) [Example 360, 4-[(2,3-Dihydro-1-benzofuran-5-yl)carbonyl]-2-{5-methyl-[1,2,4]triazolo[1,5-a]pyrimidin-7-yl}morpholine] gave an IC50 of 0.1 to 1 µM. `Cc1cc(C2CN(C(=O)c3ncc(F)cc3F)CCO2)n2ncnc2n1` (stereo not shown) [Example 361, 4-[(3,5-Difluoropyridin-2-yl)carbonyl]-2-{5-methyl-[1,2,4]triazolo[1,5-a]pyrimidin-7-yl}morpholine] gave an IC50 of over 10 µM. In the case of `Cc1cc(C2CN(C(=O)c3ccc(Cl)c(Cl)c3)CCO2)n2ncnc2n1` (stereo not shown) [Example 364, 4-(3,4-Dichlorobenzoyl)-2-{5-methyl-[1,2,4]triazolo[1,5-a]pyrimidin-7-yl}morpholine], the IC50 is reported as 0.1 to 1 µM. `Cc1cc([C@@H]2CN(C(=O)c3cc(F)c(F)c(Br)c3)CCO2)n2ncnc2n1` [Example 369, (2S)-4-(3-Bromo-4,5-difluorobenzoyl)-2-{5-methyl-[1,2,4]triazolo[1,5-a]pyrimidin-7-yl}morpholine] showed an IC50 of 0.1 to 1 µM. `Cc1cc([C@@H]2CN(C(=O)c3cc(Cl)c(F)c(Cl)c3)CCO2)n2ncnc2n1` [Example 371, (2S)-4-(3,5-Dichloro-4-fluorobenzoyl)-2-{5-methyl-[1,2,4]triazolo[1,5-a]pyrimidin-7-yl}morpholine] gave an IC50 of 0.1 to 1 µM. `Cc1cc([C@@H]2CN(C(=O)c3ccc4c(c3)OC(F)(F)O4)CCO2)n2ncnc2n1` [Example 373, (2S)-4-(2,2-Difluoro-2H-1,3-benzodioxole-5-carbonyl)-2-{5-methyl-[1,2,4]triazolo[1,5-a]pyrimidin-7-yl}morpholine] showed an IC50 of 0.1 to 1 µM. `Cc1cc([C@@H]2CN(C(=O)[C@@H]3COc4ccccc4C3)CCO2)n2ncnc2n1` [Example 376, (2S)-4-[(3S)-3,4-Dihydro-2H-1-benzopyran-3-carbonyl]-2-{5-methyl-[1,2,4]triazolo[1,5-a]pyrimidin-7-yl}morpholine] showed an IC50 of 1 to 10 µM. `Cc1cc(C2CCCN(C(=O)[C@H]3COc4ccccc4O3)C2)n2ncnc2n1` (stereo partly drawn) [Example 379, 1-[(2R)-2,3-Dihydro-1,4-benzodioxine-2-carbonyl]-3-{5-methyl-[1,2,4]triazolo[1,5-a]pyrimidin-7-yl}piperidine] gave an IC50 of 0.1 to 1 µM. Molecule `Cc1cc(C2CN(C(=O)c3ccn(-c4ccccc4F)n3)CCO2)n2ncnc2n1` (stereo not shown) [Example 380, 4-[1-(2-Fluorophenyl)-1H-pyrazole-3-carbonyl]-2-{5-methyl-[1,2,4]triazolo[1,5-a]pyrimidin-7-yl}morpholine] has an IC50 of 0.1 to 1 µM. For `Cc1cc(C2CN(C(=O)c3ccn(-c4ccccc4Cl)n3)CCO2)n2ncnc2n1` (stereo not shown) [Example 381, 4-[1-(2-Chlorophenyl)-1H-pyrazole-3-carbonyl]-2-{5-methyl-[1,2,4]triazolo[1,5-a]pyrimidin-7-yl}morpholine], the IC50 was 0.1 to 1 µM. With `Cc1cc(C2CN(C(=O)c3cc(C)n(-c4ccc(Cl)cc4)n3)CCO2)n2ncnc2n1` (stereo not shown) [Example 383, 4-[1-(4-Chlorophenyl)-5-methyl-1H-pyrazole-3-carbonyl]-2-{5-methyl-[1,2,4]triazolo[1,5-a]pyrimidin-7-yl}morpholine] the IC50 was 0.1 to 1 µM.

Same assay, conditions: IMAP TR-FRET, 200 nM FAM-cAMP substrate, 11-point half-log dose-response
With `Cc1cc(C2CCCN(C(=O)c3ccc4cc(F)ccc4c3)C2)n2ncnc2n1` (stereo not shown) [Example 348, 1-[(6-Fluoronaphthalen-2-yl)carbonyl]-3-{5-methyl-[1,2,4]triazolo[1,5-a]pyrimidin-7-yl}piperidine] the “PDE2 (pIC50)” value was over 7. For `Cc1cc(C2CCCN(C(=O)c3ccc4c(c3)OC(F)(F)O4)C2)n2ncnc2n1` (stereo not shown) [Example 350, 1-[(2,2-Difluoro-2H-1,3-benzodioxol-5-yl)carbonyl]-3-{5-methyl-[1,2,4]triazolo[1,5-a]pyrimidin-7-yl}piperidine], the “PDE2 (pIC50)” value was over 7. `Cc1cc(C2CCCN(C(=O)C3COc4ccccc4C3)C2)n2ncnc2n1` (stereo not shown) [Example 352, 1-[(3,4-Dihydro-2H-1-benzopyran-3-yl)carbonyl]-3-{5-methyl-[1,2,4]triazolo[1,5-a]pyrimidin-7-yl}piperidine] was tested, and the “PDE2 (pIC50)” value was over 7. `Cc1cc(C2CCCN(C(=O)C3CCc4ccccc4O3)C2)n2ncnc2n1` (stereo not shown) [Example 353, 1-[(3,4-Dihydro-2H-1-benzopyran-2-yl)carbonyl]-3-{5-methyl-[1,2,4]triazolo[1,5-a]pyrimidin-7-yl}piperidine] was tested, and the “PDE2 (pIC50)” value was over 7. `Cc1cc(C2CCCN(C(=O)C3CCc4cc(F)ccc4O3)C2)n2ncnc2n1` (stereo not shown) [Example 355, 1-[(6-Fluoro-3,4-dihydro-2H-1-benzopyran-2-yl)carbonyl]-3-{5-methyl-[1,2,4]triazolo[1,5-a]pyrimidin-7-yl}piperidine] was tested, and the “PDE2 (pIC50)” value was over 7. In the case of `Cc1cc(C2CCCN(C(=O)c3cccc(I)c3)C2)n2ncnc2n1` (stereo not shown) [Example 357, 1-[(3-Iodophenyl)carbonyl]-3-{5-methyl-[1,2,4]triazolo[1,5-a]pyrimidin-7-yl}piperidine], the “PDE2 (pIC50)” value is reported as over 7. With `Cc1cc(C2CCCN(C(=O)c3ccc(I)cc3)C2)n2ncnc2n1` (stereo not shown) [Example 358, 1-[(4-Iodophenyl)carbonyl]-3-{5-methyl-[1,2,4]triazolo[1,5-a]pyrimidin-7-yl}piperidine] the “PDE2 (pIC50)” value was over 7. For `Cc1cc(C2CN(C(=O)c3ccc4c(c3)CCO4)CC(F)(F)C2)n2ncnc2n1` (stereo not shown) [Example 362, 1-[(2,3-Dihydro-1-benzofuran-5-yl)carbonyl]-3,3-difluoro-5-{5-methyl-[1,2,4]triazolo[1,5-a]pyrimidin-7-yl}piperidine], the “PDE2 (pIC50)” value was over 7. For `Cc1cc(C2CN(C(=O)C3COc4ccccc4C3)CC(F)(F)C2)n2ncnc2n1` (stereo not shown) [Example 363, 1-[(3,4-Dihydro-2H-1-benzopyran-3-yl)carbonyl]-3,3-difluoro-5-{5-methyl-[1,2,4]triazolo[1,5-a]pyrimidin-7-yl}piperidine], the “PDE2 (pIC50)” value was over 7. With `COc1ccc2c(c1)OCC(C(=O)N1CC(c3cc(C)nc4ncnn34)CC(F)(F)C1)C2` (stereo not shown) [Example 365, 3,3-Difluoro-1-(7-methoxy-3,4-dihydro-2H-1-benzopyran-3-carbonyl)-5-{5-methyl-[1,2,4]triazolo[1,5-a]pyrimidin-7-yl}piperidine] the “PDE2 (pIC50)” value was over 7. For `Cc1cc(C2CCCN(C(=O)[C@H]3COc4ccccc4C3)C2)n2ncnc2n1` (stereo partly drawn) [Example 366, 1-[(3R)-3,4-Dihydro-2H-1-benzopyran-3-carbonyl]-3-{5-methyl-[1,2,4]triazolo[1,5-a]pyrimidin-7-yl}piperidine], the “PDE2 (pIC50)” value was over 7. `Cc1cc(C2CCCN(C(=O)[C@@H]3COc4ccccc4C3)C2)n2ncnc2n1` (stereo partly drawn) [Example 367, 1-[(3S)-3,4-Dihydro-2H-1-benzopyran-3-carbonyl]-3-{5-methyl-[1,2,4]triazolo[1,5-a]pyrimidin-7-yl}piperidine] was tested, and the “PDE2 (pIC50)” value was over 7. For `Cc1cc([C@@H]2CN(C(=O)c3ccc(C(F)(F)F)c(Br)c3)CCO2)n2ncnc2n1` [Example 368, (2S)-4-[3-Bromo-4-(trifluoromethyl)benzoyl]-2-{5-methyl-[1,2,4]triazolo[1,5-a]pyrimidin-7-yl}morpholine], the “PDE2 (pIC50)” value was over 7. In the case of `Cc1cc([C@@H]2CN(C(=O)c3cc(Cl)c(Cl)c(Cl)c3)CCO2)n2ncnc2n1` [Example 370, (2S)-2-{5-Methyl-[1,2,4]triazolo[1,5-a]pyrimidin-7-yl}-4-(3,4,5-trichlorobenzoyl)morpholine], the “PDE2 (pIC50)” value is reported as over 7. `Cc1cc([C@@H]2CN(C(=O)c3ccc4occc4c3)CCO2)n2ncnc2n1` [Example 372, (2S)-4-(1-Benzofuran-5-carbonyl)-2-{5-methyl-[1,2,4]triazolo[1,5-a]pyrimidin-7-yl}morpholine] was tested, and the “PDE2 (pIC50)” value was over 7. `Cc1cc([C@@H]2CN(C(=O)c3cc(-c4ccccc4)nn3C)CCO2)n2ncnc2n1` [Example 374, (2S)-4-(1-Methyl-3-phenyl-1H-pyrazole-5-carbonyl)-2-{5-methyl-[1,2,4]triazolo[1,5-a]pyrimidin-7-yl}morpholine] was tested, and the “PDE2 (pIC50)” value was over 7. `Cc1cc([C@@H]2CN(C(=O)[C@H]3COc4ccccc4C3)CCO2)n2ncnc2n1` [Example 375, (2S)-4-[(3R)-3,4-Dihydro-2H-1-benzopyran-3-carbonyl]-2-{5-methyl-[1,2,4]triazolo[1,5-a]pyrimidin-7-yl}morpholine] was tested, and the “PDE2 (pIC50)” value was over 7. In the case of `Cc1cc(C2CCCN(C(=O)[C@@H]3COc4ccccc4O3)C2)n2ncnc2n1` (stereo partly drawn) [Example 377, 1-[(2S)-2,3-Dihydro-1,4-benzodioxine-2-carbonyl]-3-{5-methyl-[1,2,4]triazolo[1,5-a]pyrimidin-7-yl}piperidine], the “PDE2 (pIC50)” value is reported as over 7. In the case of `Cc1cc(C2CN(C(=O)c3ccn(-c4cccc(Br)c4)n3)CCO2)n2ncnc2n1` (stereo not shown) [Example 382, 4-[1-(3-Bromophenyl)-1H-pyrazole-3-carbonyl]-2-{5-methyl-[1,2,4]triazolo[1,5-a]pyrimidin-7-yl}morpholine], the “PDE2 (pIC50)” value is reported as over 7.
